# In PMC3992280 (Biochimica et biophysica acta, 2014):
# System: Mycobacterium smegmatis strain mc^2155
# Format: cell-based
# Conditions: mc^2155 versus RHS 234
structure (smiles),measurement,value
CO[C@H]1/C=C/O[C@@]2(C)Oc3c(C)c(O)c4c(O)c(c(/C=N/N5CCN(C)CC5)c(O)c4c3C2=O)NC(=O)/C(C)=C\C=C\[C@H](C)[C@H](O)[C@@H](C)[C@@H](O)[C@@H](C)[C@H](OC(C)=O)[C@@H]1C [Rifampin],resistance factor R (MICwt/MICmutant),8
